The target of assay [1] is Histone deacetylase 2 (Homo sapiens, UniProt Q92769). The assay can be described thus: biochemical.
The target in assay [2] is Histone deacetylase 1 (Homo sapiens, UniProt Q13547). The assay can be described thus: biochemical.
In assay [3] the target is T1, Protein deacetylase HDAC6 (Homo sapiens, UniProt Q9UBN7).
T1 sequence (Q9UBN7 whole entry): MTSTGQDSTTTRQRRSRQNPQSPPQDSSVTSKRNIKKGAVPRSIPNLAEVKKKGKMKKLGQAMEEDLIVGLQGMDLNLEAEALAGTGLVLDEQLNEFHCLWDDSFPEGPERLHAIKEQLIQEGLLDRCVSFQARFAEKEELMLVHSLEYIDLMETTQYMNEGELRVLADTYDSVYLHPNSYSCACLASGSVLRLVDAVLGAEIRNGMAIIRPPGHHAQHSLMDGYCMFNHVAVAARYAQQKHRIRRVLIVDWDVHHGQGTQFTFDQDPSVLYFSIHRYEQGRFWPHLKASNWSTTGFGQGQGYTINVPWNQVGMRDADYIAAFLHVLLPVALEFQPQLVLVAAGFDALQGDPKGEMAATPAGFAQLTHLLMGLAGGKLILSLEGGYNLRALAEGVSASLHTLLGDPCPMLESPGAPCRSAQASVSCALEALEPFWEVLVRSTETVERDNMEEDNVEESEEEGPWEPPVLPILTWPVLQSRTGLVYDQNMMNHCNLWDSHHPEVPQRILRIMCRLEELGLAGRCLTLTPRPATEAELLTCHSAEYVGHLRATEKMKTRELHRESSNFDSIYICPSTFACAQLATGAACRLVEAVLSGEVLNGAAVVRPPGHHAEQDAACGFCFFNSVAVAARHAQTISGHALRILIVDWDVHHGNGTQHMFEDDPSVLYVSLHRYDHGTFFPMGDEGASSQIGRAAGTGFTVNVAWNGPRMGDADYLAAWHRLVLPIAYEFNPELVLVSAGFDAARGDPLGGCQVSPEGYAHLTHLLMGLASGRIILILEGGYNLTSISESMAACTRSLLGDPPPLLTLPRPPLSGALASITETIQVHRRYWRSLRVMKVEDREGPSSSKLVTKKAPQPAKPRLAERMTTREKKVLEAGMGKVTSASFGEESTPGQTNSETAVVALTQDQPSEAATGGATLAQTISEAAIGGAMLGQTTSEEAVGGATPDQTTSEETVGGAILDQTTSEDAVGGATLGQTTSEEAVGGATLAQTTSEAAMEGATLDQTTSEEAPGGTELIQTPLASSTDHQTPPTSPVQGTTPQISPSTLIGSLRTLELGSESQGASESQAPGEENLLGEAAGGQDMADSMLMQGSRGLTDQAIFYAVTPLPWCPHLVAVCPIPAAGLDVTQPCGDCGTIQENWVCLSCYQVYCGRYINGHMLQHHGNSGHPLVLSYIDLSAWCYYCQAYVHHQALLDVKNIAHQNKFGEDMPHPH

By UniProt entry, the sequences of proteins in these tests, tags left out.
UniProt Q92769, whole entry: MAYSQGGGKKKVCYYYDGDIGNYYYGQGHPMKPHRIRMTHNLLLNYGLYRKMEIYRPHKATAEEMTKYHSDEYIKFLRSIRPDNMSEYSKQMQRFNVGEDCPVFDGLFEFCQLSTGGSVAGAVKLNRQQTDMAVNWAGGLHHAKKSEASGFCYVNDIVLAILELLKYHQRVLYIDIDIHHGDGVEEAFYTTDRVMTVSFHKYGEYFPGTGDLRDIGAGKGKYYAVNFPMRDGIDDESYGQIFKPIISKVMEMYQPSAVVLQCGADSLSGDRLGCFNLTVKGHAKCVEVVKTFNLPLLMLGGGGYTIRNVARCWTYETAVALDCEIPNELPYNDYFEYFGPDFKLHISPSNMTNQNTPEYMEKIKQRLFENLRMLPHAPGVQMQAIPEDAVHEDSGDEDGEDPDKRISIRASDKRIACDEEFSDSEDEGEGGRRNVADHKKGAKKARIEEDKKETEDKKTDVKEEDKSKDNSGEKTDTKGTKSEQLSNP
UniProt Q13547, whole entry: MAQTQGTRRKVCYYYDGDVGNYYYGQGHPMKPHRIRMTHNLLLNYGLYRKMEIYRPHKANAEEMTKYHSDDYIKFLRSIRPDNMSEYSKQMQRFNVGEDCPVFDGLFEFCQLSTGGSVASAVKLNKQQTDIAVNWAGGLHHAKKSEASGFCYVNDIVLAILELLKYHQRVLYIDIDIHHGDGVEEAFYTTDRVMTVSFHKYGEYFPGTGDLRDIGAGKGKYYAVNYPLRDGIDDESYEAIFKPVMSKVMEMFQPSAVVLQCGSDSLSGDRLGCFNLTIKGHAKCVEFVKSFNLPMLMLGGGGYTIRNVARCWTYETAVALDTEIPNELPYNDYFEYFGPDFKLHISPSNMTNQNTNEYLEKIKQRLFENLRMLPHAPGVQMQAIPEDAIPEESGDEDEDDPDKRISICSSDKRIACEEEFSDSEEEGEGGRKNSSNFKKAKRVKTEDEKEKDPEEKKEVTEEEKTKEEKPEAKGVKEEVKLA

The target in assay [4] is T2, Histone deacetylase 8 (Homo sapiens, UniProt Q9BY41).
T2 sequence (Q9BY41 whole entry): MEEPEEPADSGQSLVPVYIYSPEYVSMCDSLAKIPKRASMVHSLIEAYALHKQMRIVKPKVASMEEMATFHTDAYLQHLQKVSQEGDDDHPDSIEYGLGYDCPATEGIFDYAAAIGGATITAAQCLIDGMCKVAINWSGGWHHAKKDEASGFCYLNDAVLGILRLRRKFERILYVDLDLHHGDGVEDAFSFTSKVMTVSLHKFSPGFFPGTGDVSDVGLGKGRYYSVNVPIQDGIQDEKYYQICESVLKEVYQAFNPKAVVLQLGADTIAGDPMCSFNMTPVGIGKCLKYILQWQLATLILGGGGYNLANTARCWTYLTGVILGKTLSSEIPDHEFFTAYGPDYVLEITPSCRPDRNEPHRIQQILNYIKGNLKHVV

This is an account of results in ChEMBL document CHEMBL4622967, “Selective Class I HDAC Inhibitors Based on Aryl Ketone Zinc Binding Induce HIV-1 Protein for Clearance” (ACS Med Chem Lett, 2020).

Bounds are passed on as bounds.

In general, IC50 refers to the concentration at which inhibition is half-maximal. A low value points to greater potency in that assay.

As to `N[C@@H](CCCCCC(=O)c1ccon1)c1cnn(-c2ccc(F)cc2)n1`, the IC50 was found to be 0.081 µM in assay [1] and 0.025 µM in assay [2].
`N[C@@H](CCCCCC(=O)c1ccon1)c1cc(-c2ccccc2F)on1` showed an IC50 in assay [3] of over 0.9 µM.
Take `CN1CC(C(=O)N[C@@H](CCCCCC(=O)c2ccon2)c2nnc(-c3ccccc3F)o2)C1`: the IC50 in assay [4] and in assay [3] was over 0.9 µM throughout.
In the case of `CN1CC(C(=O)N[C@@H](CCCCCC(=O)c2ccon2)c2ncc(-c3ccccc3F)o2)C1`, the IC50 was 0.00082 µM in assay [1], 0.032 µM in assay [4], over 0.9 µM in assay [3] and 0.0002 µM in assay [2].
In the case of `N[C@@H](CCCCCC(=O)c1ccon1)c1cnn(-c2ccc(F)cc2)c1`, the IC50 in assay [1] worked out at 0.061 µM.
